From patent EP4847511A1, “COMPOUND WITH TRICYCLIC STRUCTURE, PHARMACEUTICAL COMPOSITION THEREOF AND USE THEREOF” (dated 2026)

Sequences of proteins named here, by UniProt entry; tags and fusion partners are left off. A change or cut given only in a name is not applied to a line headed by its entry.
UniProt P42336, whole entry: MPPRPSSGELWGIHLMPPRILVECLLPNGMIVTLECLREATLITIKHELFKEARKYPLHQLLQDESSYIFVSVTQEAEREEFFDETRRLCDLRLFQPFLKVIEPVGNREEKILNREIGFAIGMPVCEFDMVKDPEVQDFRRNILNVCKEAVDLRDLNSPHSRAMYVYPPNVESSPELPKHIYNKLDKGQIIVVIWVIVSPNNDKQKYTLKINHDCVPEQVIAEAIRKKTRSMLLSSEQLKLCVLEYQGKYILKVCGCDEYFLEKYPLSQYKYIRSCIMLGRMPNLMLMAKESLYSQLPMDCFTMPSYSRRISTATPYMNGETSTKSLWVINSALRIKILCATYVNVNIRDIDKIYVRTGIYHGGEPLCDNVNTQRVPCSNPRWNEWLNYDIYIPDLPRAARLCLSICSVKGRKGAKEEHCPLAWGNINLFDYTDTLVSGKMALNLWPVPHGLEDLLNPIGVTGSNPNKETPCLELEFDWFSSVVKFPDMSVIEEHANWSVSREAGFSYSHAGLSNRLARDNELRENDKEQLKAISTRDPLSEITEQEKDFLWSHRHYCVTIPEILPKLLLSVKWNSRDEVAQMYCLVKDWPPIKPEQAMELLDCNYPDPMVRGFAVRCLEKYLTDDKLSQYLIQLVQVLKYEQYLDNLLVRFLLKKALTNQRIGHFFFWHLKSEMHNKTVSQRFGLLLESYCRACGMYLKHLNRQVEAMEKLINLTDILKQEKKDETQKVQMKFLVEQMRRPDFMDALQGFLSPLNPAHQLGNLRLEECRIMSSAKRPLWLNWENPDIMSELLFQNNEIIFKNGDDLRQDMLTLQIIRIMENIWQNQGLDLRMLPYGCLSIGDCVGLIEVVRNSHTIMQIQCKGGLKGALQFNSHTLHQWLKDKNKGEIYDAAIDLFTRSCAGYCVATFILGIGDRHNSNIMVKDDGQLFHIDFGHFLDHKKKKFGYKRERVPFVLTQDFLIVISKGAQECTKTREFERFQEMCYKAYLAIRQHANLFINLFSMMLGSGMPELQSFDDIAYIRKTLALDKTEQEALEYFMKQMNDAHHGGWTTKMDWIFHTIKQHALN
UniProt P42336, whole entry H1047R: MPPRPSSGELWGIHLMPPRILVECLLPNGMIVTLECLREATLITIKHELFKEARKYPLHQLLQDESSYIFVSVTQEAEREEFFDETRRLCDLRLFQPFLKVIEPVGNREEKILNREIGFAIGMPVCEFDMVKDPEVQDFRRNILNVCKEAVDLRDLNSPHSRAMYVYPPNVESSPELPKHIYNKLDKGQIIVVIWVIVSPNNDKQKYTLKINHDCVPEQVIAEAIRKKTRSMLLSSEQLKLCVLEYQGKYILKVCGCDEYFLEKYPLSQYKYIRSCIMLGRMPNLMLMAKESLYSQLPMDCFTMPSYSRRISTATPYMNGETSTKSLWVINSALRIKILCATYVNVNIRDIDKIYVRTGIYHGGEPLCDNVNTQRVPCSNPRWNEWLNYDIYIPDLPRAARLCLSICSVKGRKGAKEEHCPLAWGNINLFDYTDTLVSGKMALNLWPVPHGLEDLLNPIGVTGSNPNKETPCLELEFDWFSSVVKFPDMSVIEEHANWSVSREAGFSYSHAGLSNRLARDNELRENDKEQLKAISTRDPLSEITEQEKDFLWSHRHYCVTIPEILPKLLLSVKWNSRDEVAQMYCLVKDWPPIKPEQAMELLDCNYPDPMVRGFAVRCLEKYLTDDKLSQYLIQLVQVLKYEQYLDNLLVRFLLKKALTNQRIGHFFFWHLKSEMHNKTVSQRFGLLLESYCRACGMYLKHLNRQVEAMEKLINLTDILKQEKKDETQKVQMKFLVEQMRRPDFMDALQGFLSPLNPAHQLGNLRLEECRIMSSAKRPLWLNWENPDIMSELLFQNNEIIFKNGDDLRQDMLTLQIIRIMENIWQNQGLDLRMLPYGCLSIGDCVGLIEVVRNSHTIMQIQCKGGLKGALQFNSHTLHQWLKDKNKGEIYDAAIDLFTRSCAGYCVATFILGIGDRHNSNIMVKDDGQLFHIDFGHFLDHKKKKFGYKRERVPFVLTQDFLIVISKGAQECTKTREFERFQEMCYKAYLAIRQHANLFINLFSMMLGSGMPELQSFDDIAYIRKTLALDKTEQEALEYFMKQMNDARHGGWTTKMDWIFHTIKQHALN
UniProt P27986, whole entry partner: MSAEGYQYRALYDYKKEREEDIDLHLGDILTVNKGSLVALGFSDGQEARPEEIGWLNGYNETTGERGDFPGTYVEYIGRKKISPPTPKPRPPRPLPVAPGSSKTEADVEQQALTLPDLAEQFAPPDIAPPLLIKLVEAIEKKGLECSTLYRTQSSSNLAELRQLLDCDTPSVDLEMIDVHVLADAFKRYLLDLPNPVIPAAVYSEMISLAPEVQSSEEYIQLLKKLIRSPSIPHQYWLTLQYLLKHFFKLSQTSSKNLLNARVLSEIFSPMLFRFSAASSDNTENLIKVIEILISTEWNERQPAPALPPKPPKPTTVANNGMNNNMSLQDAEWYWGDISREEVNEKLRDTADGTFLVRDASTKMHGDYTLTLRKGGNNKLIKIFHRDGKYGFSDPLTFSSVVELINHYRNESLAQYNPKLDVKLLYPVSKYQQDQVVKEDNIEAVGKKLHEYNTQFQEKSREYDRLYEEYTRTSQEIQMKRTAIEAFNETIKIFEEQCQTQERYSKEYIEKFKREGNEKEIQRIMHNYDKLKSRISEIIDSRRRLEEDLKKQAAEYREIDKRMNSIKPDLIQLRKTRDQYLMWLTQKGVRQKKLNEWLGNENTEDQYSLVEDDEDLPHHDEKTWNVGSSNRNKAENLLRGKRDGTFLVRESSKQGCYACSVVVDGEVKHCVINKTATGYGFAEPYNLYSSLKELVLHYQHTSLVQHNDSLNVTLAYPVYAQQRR

How the values were obtained:
PI3Kα H1047R = PI3Kα H1047R (Homo sapiens, UniProt P42336, H1047R); experiment: ADP-Glo Kinase Assay, enzyme activity inhibition of PI3Kα H1047R; settings: read-out: PI3KαH1047R IC50, ATP 25µM, PIP2 50µg/mL, kinase 0.05µg/mL, room temperature 1 hour
Protocol: (§1) Effect Example IC50 of PI3Kα and PI3KαH1047R enzyme activity inhibition evaluation assay
(§2) The ADP-Glo Kinase Assay Kit was used for the experiments. The following buffer solutions were prepared: 50 mM HEPES, pH 7.5, 3 mM MgCl2, 1 mM EGTA, 100 mM NaCl, 0.03% CHAPS, 2 mM DTT. The tested compound samples were dissolved in DMSO and added to the screening system at a certain starting concentration of, for example, 10 µM, diluted 3-fold, while setting a DMSO control and an unkinase control. The optimal concentrations of PI3Kα, PI3Kα H1047R, substrate (PIP2) and ATP were prepared with buffers. The enzyme reaction system included: buffer, ATP 25µM, kinase substrate (PIP2, 50µg/mL), kinase PI3Kα (0.15µg/mL), PI3Kδ H1047R (0.05µg/mL), etc. The reaction system was reacted at room temperature for 1 hour, then terminated by adding a terminal reagent (ADP-Glo reagent, 5µL), and the ADP content in the system was detected using a detection reagent (Kinase Detection Reagent, 10µL). Signal data was collected using the Envision instrument. Calculated the % inhibition according to the following formula: % inhibition = (DMSO control signal value - sample signal value)/ (DMSO control signal value - unkinase control signal value). Inhibition curves were plotted using the formula Y=Bottom + (Top-Bottom)/(1+(IC50/X)^HillSlope) to obtain IC50 values and the results are as shown in Table 1.
(§3) Result + represents IC50 <= 250nM ++ represents 250 nM < IC50 < = 10µM +++ represents IC50 > 10 µM Table 1

PI3Kα = PI3Kα (Homo sapiens, UniProt P42336); experiment: ADP-Glo Kinase Assay, enzyme activity inhibition of PI3Kα; settings: read-out: PI3Kα IC50, ATP 25µM, PIP2 50µg/mL, kinase PI3Kα 0.15µg/mL, room temperature 1 hour
Protocol: as §1, §2, §3

IC50 (PI3Kα H1047R) [nM] | IC50 (PI3Kα) [nM] | Structure (SMILES)
< 250 | 250 to 10000 | N#Cc1c(-c2cc(NC(=O)c3cc(F)cc(C(F)(F)F)c3)c3c4c2CCN4C(=O)NC3c2cc(F)ccc2Cl)cnc2[nH]cnc12 (centres unmarked)
< 250 | 250 to 10000 | N#Cc1c(-c2cc(NC(=O)c3cc(F)cc(C(F)(F)F)c3)c3c4c2CCN4C(=O)NC3c2cc(F)ccc2Cl)cnc2[nH]ncc12 (centres unmarked)
250 to 10000 | 250 to 10000 | N#Cc1cccc2[nH]nc(-c3cc(NC(=O)c4cc(F)cc(C(F)(F)F)c4)c4c5c3CCN5C(=O)NC4c3cc(F)ccc3Cl)c12 (centres unmarked)
250 to 10000 | > 10000 | N#Cc1n[nH]c2ccc(-c3cc(NC(=O)c4cc(F)cc(C(F)(F)F)c4)c4c5c3CCN5C(=O)NC4c3cc(F)ccc3Cl)cc12 (centres unmarked)
< 250 | 250 to 10000 | Nc1nc2ccc(-c3cc(NC(=O)c4cc(F)cc(C(F)(F)F)c4)c4c5c3CCN5C(=O)NC4c3cc(F)ccc3Cl)c(Br)n2n1 (centres unmarked)
250 to 10000 | 250 to 10000 | O=C(Nc1cc(-c2cnc3[nH]ncc3c2Cl)c2c3c1C(c1cc(F)ccc1Cl)NC(=O)N3CC2)c1cc(F)cc(C(F)(F)F)c1 (centres unmarked)
< 250 | 250 to 10000 | COc1cc(-c2cc(NC(=O)c3cc(F)cc(C(F)(F)F)c3)c3c4c2CCN4C(=O)NC3c2cc(F)ccc2Cl)c(C#N)n2ncnc12 (racemic)
< 250 | > 10000 | N#Cc1c(-c2cc(NC(=O)c3cc(F)cc(C(F)(F)F)c3)c3c4c2CCN4C(=O)NC3c2cc(F)ccc2Cl)cc(N)c2ncnn12 (racemic)
< 250 | 250 to 10000 | N#Cc1c(-c2cc(NC(=O)c3cc(F)cc(C(F)(F)F)c3)c3c4c2CCN4C(=O)NC3c2cc(F)ccc2Cl)ccc2nc(N)nn12 (racemic)
< 250 | 250 to 10000 | Nc1nc2ccc(-c3cc(NC(=O)c4cc(F)cc(C(F)(F)F)c4)c4c5c3CCN5C(=O)NC4c3cc(F)ccc3Cl)c(F)n2n1 (racemic)
< 250 | 250 to 10000 | COc1cc(-c2cc(NC(=O)c3cc(F)cc(C(F)(F)F)c3)c3c4c2CCN4C(=O)NC3c2cc(F)ccc2Cl)c(C#N)n2ncnc12 (single isomer, unassigned)
< 250 | 250 to 10000 | N#Cc1ncccc1-c1cc(NC(=O)c2cc(F)cc(C(F)(F)F)c2)c2c3c1CCN3C(=O)NC2c1cc(Cl)c(F)cc1Cl (single isomer, unassigned) [Compound 1-p1]
250 to 10000 | > 10000 | N#Cc1ncccc1-c1cc(NC(=O)c2cc(F)cc(C(F)(F)F)c2)c2c3c1CCN3C(=O)NC2c1cc(Cl)c(F)cc1Cl (single isomer, unassigned) [Compound 1-p2]
250 to 10000 | > 10000 | N#Cc1c(-c2cc(NC(=O)c3cc(F)cc(C(F)(F)F)c3)c3c4c2CCN4C(=O)NC3c2cc(F)ccc2Cl)cc(N)c2ncnn12 (single isomer, unassigned) [Compound 15-p1]
< 250 | 250 to 10000 | N#Cc1c(-c2cc(NC(=O)c3cc(F)cc(C(F)(F)F)c3)c3c4c2CCN4C(=O)NC3c2cc(F)ccc2Cl)cc(N)c2ncnn12 (single isomer, unassigned) [Compound 15-p2]
< 250 | 250 to 10000 | N#Cc1c(-c2cc(NC(=O)c3cc(F)cc(C(F)(F)F)c3)c3c4c2CCN4C(=O)NC3c2cc(F)ccc2Cl)ccc2nc(N)nn12 (single isomer, unassigned) [Compound 20-p1]
250 to 10000 | > 10000 | N#Cc1c(-c2cc(NC(=O)c3cc(F)cc(C(F)(F)F)c3)c3c4c2CCN4C(=O)NC3c2cc(F)ccc2Cl)ccc2nc(N)nn12 (single isomer, unassigned) [Compound 20-p2]
250 to 10000 | > 10000 | N#Cc1c(-c2cc(NC(=O)c3cc(F)cc(C(F)(F)F)c3)c3c4c2CCN4C(=O)NC3c2cc(F)ccc2Cl)ccc2[nH]ncc12 (single isomer, unassigned) [Compound 28-p1]
– | 250 to 10000 | N#Cc1c(-c2cc(NC(=O)c3cc(F)cc(C(F)(F)F)c3)c3c4c2CCN4C(=O)NC3c2cc(F)ccc2Cl)ccc2[nH]ncc12 (single isomer, unassigned) [Compound 28-p2]
250 to 10000 | > 10000 | N#Cc1c(-c2cc(NC(=O)c3cc(F)cc(C(F)(F)F)c3)c3c4c2CCN4C(=O)NC3c2cc(F)ccc2Cl)ccc2[nH]nc(F)c12 (single isomer, unassigned) [Compound 29-p1]
< 250 | 250 to 10000 | N#Cc1c(-c2cc(NC(=O)c3cc(F)cc(C(F)(F)F)c3)c3c4c2CCN4C(=O)NC3c2cc(F)ccc2Cl)ccc2[nH]nc(F)c12 (single isomer, unassigned) [Compound 29-p2]

Further lines, the compound ahead of its results:

Structure (SMILES) | IC50 (PI3Kα H1047R) [nM] | IC50 (PI3Kα) [nM]
Cc1c(C(=O)Nc2cc(Br)c3c4c2C(c2cc(F)ccc2Cl)NC(=O)N4CC3)oc2c(F)cc(F)cc12 (centres unmarked) | 250 to 10000 | 250 to 10000
Cc1cc(F)cc(C2NC(=O)c3c4c2c(NC(=O)c2cc(F)cc(C(F)(F)F)c2)ccc4nn3C)c1Cl (centres unmarked) | < 250 | 250 to 10000
Cn1nc2c(-c3ccc4[nH]nc(F)c4c3C#N)cc(NC(=O)c3cc(F)cc(C(F)(F)F)c3)c3c2c1C(=O)NC3c1cc(F)ccc1Cl (centres unmarked) | < 250 | 250 to 10000
Cn1nc2c(-c3ccc4[nH]ncc4c3F)cc(NC(=O)c3cc(F)cc(C(F)(F)F)c3)c3c2c1C(=O)NC3c1cc(F)ccc1Cl (centres unmarked) | < 250 | 250 to 10000
Cn1nc2c(-c3ccc4ncnn4c3F)cc(NC(=O)c3cc(F)cc(C(F)(F)F)c3)c3c2c1C(=O)NC3c1cc(F)ccc1Cl (centres unmarked) | < 250 | 250 to 10000
Cn1nc2c(-c3ccc4ncnn4c3N)cc(NC(=O)c3cc(F)cc(C(F)(F)F)c3)c3c2c1C(=O)NC3c1cc(F)ccc1Cl (centres unmarked) | < 250 | > 10000
Cn1nc2c(F)cc(NC(=O)c3cc(F)cc(C(F)(F)F)c3)c3c2c1C(=O)NC3c1cc(F)ccc1Cl (centres unmarked) | < 250 | 250 to 10000
Cn1nc2c(NC3(C#N)CC3)cc(NC(=O)c3cc(F)cc(C(F)(F)F)c3)c3c2c1C(=O)NC3c1cc(F)ccc1Cl (centres unmarked) | 250 to 10000 | 250 to 10000
Cn1nc2ccc(NC(=O)c3cc(F)cc(C(F)(F)F)c3)c3c2c1C(=O)NC3c1c(Cl)ccc(F)c1F (centres unmarked) | < 250 | 250 to 10000
Cn1nc2ccc(NC(=O)c3cc(F)cc(C(F)(F)F)c3)c3c2c1C(=O)NC3c1cc(F)c(Cl)cc1Cl (centres unmarked) | – | 250 to 10000
Cn1nc2ccc(NC(=O)c3cc(F)cc(C(F)(F)F)c3)c3c2c1C(=O)NC3c1cc(F)c(F)cc1Cl (centres unmarked) | < 250 | 250 to 10000
N#Cc1c(-c2cc(NC(=O)c3cc(F)cc(C(F)(F)F)c3)c3c4c2CCN4C(=O)NC3c2cc(F)ccc2Cl)cc(N[C@@H](CS)C(=O)O)c2ncnn12 (some centres unmarked) | < 250 | 250 to 10000
Nc1c(F)c(NC(=O)c2cc(F)cc(C(F)(F)F)c2)c2c3c1CCN3C(=O)NC2c1cc(Cl)ccc1Cl (centres unmarked) | < 250 | 250 to 10000
O=C(Nc1cc(N2CCn3c(nnc3C(F)(F)F)C2)c2c3c1C(c1cc(F)ccc1Cl)NC(=O)N3CC2)c1cc(F)cc(C(F)(F)F)c1 (centres unmarked) | 250 to 10000 | > 10000
Cn1nc2c(-c3ccc4ncnn4c3C#N)cc(NC(=O)c3cc(F)cc(C(F)(F)F)c3)c3c2c1C(=O)NC3c1cc(Cl)c(F)cc1Cl (racemic) | < 250 | 250 to 10000
N#Cc1c(-c2cc(NC(=O)c3cc(F)cc(C(F)(F)F)c3)c3c4c2CCN4C(=O)NC3c2cc(F)c(F)cc2Cl)ccc2ncnn12 (racemic) | < 250 | 250 to 10000
O=C(Nc1cc(N2CCn3cnnc3C2)c2c3c1C(c1cc(F)ccc1Cl)NC(=O)N3CC2)c1cc(F)cc(C(F)(F)F)c1 (racemic) | 250 to 10000 | > 10000
Cn1nc2c(-c3ccc4ncnn4c3C#N)cc(NC(=O)c3cc(F)cc(C(F)(F)F)c3)c3c2c1C(=O)NC3c1cc(Cl)c(F)cc1Cl (single isomer, unassigned) | < 250 | 250 to 10000
Cn1nc2c(Cl)cc(NC(=O)c3cc(F)cc(C(F)(F)F)c3)c3c2c1C(=O)NC3c1cc(F)ccc1Cl (single isomer, unassigned) | < 250 | 250 to 10000
N#Cc1c(-c2cc(NC(=O)c3cc(F)cc(C(F)(F)F)c3)c3c4c2CCN4C(=O)NC3c2cc(Cl)c(F)cc2Cl)ccc2ncnn12 (single isomer, unassigned) [Compound 23-p1] | 250 to 10000 | > 10000
N#Cc1c(-c2cc(NC(=O)c3cc(F)cc(C(F)(F)F)c3)c3c4c2CCN4C(=O)NC3c2cc(Cl)c(F)cc2Cl)ccc2ncnn12 (single isomer, unassigned) [Compound 23-p2] | < 250 | 250 to 10000
N#Cc1c(-c2cc(NC(=O)c3cc(F)cc(C(F)(F)F)c3)c3c4c2CCN4C(=O)NC3c2cc(F)c(F)cc2Cl)ccc2ncnn12 (single isomer, unassigned) [Compound 36-p1] | 250 to 10000 | > 10000
N#Cc1c(-c2cc(NC(=O)c3cc(F)cc(C(F)(F)F)c3)c3c4c2CCN4C(=O)NC3c2cc(F)c(F)cc2Cl)ccc2ncnn12 (single isomer, unassigned) [Compound 36-p2] | < 250 | 250 to 10000
